From article PMC3447978, “High-Throughput 1,536-Well Fluorescence Polarization Assays for α1-Acid Glycoprotein and Human Serum Albumin Binding” (PLoS ONE, 2012)

Protein sequences, listed by entry. Tags and fused reporters are not part of them. Residues count along the entry.
UniProt P02768, 25-609: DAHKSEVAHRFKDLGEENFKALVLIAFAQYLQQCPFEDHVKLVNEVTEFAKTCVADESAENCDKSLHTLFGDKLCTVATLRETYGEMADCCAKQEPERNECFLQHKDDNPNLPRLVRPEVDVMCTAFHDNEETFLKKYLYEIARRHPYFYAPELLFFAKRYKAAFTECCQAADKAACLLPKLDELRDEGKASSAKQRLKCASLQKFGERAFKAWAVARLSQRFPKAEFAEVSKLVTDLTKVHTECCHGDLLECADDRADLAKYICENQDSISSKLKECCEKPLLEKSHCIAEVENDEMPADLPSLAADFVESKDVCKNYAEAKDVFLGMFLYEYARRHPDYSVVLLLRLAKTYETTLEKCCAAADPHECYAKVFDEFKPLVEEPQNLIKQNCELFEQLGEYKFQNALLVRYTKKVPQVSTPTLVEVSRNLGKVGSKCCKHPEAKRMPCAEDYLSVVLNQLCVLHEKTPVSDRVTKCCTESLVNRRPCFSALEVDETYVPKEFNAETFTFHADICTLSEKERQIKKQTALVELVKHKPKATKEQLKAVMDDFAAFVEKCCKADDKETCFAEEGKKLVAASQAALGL

Assays:
[1] = target: T1, human serum albumin (HSA) (Homo sapiens, UniProt P02768); test: HSA 96-well fluorescence polarization displacement assay (dansyl sarcosine probe, Sudlow Site II)
[2] = target: T1, human serum albumin (HSA); test: HSA 1,536-well fluorescence polarization displacement assay (dansyl sarcosine probe, Sudlow Site II)
HSA protein-coated beads = HSA protein-coated beads (Homo sapiens, UniProt P02768); test: HSA protein-coated bead assay with HPLC analysis; format: binding; details: compound 50 µM

CN(C)CCCN1c2ccccc2Sc2ccc(Cl)cc21 [Chlorpromazine, chlorpromazine]
IC50 [1]: 303 µM | IC50 [2]: 10100 µM | Kd (HSA protein-coated beads): 34.4 µM
